Experiment: Inhibition of Escherichia coli thymidylate synthase

IC50: 2300 nM
Structure (SMILES): Cc1nc(=O)c2cc(CN(C)c3ccc(C(=O)N[C@@H](CCC(=O)O)C(=O)O)s3)ccc2[nH]1 [RALTITREXED]

From ChEMBL document CHEMBL2046359, “Novel tricyclic indeno[2,1-d]pyrimidines with dual antiangiogenic and cytotoxic activities as potent antitumor agents” (Bioorg Med Chem, 2012)
